Molecular target: Cholinesterase (Homo sapiens, UniProt P06276)

Amino acid sequences for entries named in this document (tags omitted).
UniProt P06276, whole entry: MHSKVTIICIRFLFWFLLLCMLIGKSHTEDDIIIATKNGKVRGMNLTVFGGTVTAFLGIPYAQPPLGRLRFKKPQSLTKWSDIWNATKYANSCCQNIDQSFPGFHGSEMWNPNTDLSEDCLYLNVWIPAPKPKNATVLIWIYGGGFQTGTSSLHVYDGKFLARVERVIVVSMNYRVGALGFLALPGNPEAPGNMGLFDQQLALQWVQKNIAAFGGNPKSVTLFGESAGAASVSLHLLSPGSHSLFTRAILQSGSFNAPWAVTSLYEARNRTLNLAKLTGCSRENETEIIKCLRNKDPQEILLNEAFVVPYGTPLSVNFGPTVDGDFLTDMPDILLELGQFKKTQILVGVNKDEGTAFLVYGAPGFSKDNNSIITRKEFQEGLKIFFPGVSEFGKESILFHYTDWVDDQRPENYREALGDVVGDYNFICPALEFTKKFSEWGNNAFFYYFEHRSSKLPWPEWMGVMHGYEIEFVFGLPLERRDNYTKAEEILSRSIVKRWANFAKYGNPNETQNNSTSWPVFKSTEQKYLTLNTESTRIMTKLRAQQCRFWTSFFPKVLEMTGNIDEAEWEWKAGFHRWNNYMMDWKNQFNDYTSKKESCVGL

## CCN(C)C(=O)Oc1cccc([C@H](C)N(C)C)c1 [RIVASTIGMINE]
  IC50: 2710 nM

Reference: ChEMBL document CHEMBL4831510, “Novel cannabidiol-carbamate hybrids as selective BuChE inhibitors: Docking-based fragment reassembly for the development of potential therapeutic agents against Alzheimer's disease” (Eur J Med Chem, 2021)
